# This is a sample that favours compounds with a hit; in the whole collection about 2.1% have one here.
# miR-21 reporter – raises the signal of a miR-21 reporter; 340,000 tested, under 10 active; HeLa miR-21 FLuc reporter, luciferase, 48 h; Potency, µM (series often up to 38.3 µM), for inactives: at the highest dose reporter change, positive = more light; active = well fitted rising curve with a large enough effect; inconclusive = small, poorly fitted or top-dose-only effect; inactive = no such curve, though single readings can be large or run the other way;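 further: % of control where 0% means no effect; miR-21 action dims this reporter so a rising signal means less miR-21 action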
#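 Using DMEM plus 10% FBS, HeLa miR-21-FLuc cells are incubated with test compounds (final up to about 40uM) for 48 hours; firefly luciferase signal is then imaged following reagent-mediated lysis.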
# Glioma ERSR ind – induces the endoplasmic reticulum stress response in human glioma cells; U87-MG GRP78 promoter luciferase reporter, 16 h; hit rate 0.02% among 420,000; Potency, µM, inactives show at the highest dose activation, hits mostly activators; further: potency means the concentration at half of the fitted maximal effect; series mostly up to about 76 µM; % of control where 0% means no effect; nearly all actives have a fitted effect of over 35% in size
#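 Stably transfected U87-MG human glioma cells carrying a GRP78-based luminescent sensor were seeded at 1000 cells/well, pin-dosed with compounds and incubated 16 h. Luciferase reagent was then added, and end-point luminescence was read after 10 min at room temperature.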
# Nrf2 inh – Nrf2 pathway inhibition | Potency, µM (highest dose often 46 µM), inactives show at the highest dose activity change, negative = inhibition, most hits filed as inhibitors | hit rate 2.1% among 360,000 | A549 ARE-Fluc reporter, luciferase luminescence, 18-24 h; further: potency means the concentration at half of the fitted maximal effect; on the % scale 0 is the no-effect control and ±100 the full control effect; nearly all actives have a fitted effect of over 60% in size
#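 A549 ARE_Fluc cells (5000/well, 5% FBS OPTI-MEM) pre-incubated 2 h, then treated with compounds 18-24 h at 37C/5% CO2 in concentration-response. CellTiter-Fluor viability read first; BugLite luciferase luminescence after 15 min at room temperature gives Nrf2 activity.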
# PTAP TSG101 blk – blocks PTAP/TSG101 interaction to inhibit HIV-1 budding; Fluorescence polarization, FITC-PTAP peptide / Tsg101 binding; AID 493005; Q99816; 340,000 tested, under 10 active; Potency, µM (titrated, usually from 115 µM), inactives show top-dose activity change, negative = inhibition, most hits filed as inhibitors; active means well fitted inhibition curve with a large enough effect in the main read-out, with a control signal flat, not every such curve was filed as active; inconclusive means small, poorly fitted or top-dose-only effect, or effect the other way, or a change in a side signal; inactive means no such curve, though single readings can be large or run the other way; further: potency means the concentration at half of the fitted maximal effect; % of control where 0% means no effect
#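 Fluorescence anisotropy tracks displacement of a FITC-tagged PTAP peptide (50 nM) from the Tsg101 binding domain (10 uM), following a 20 min room-temperature incubation at pH 7.5.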
# A549 viability – kills or reduces viability of A549 cells in Nrf2 counter-screen; A549 ARE-Fluc cells, CellTiter-Fluor viability, 18-24 h; hit rate 0.16% among 390,000; Potency, µM (series often up to 46 µM), for the others: at the top dose activity change, negative = cytotoxicity, usual class: inhibitors; AID 504648; further: potency means the concentration at half of the fitted maximal effect; on the % scale 0 is the no-effect control and ±100 the full control effect
#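 Cytotoxicity counterscreen: CellTiter-Fluor fluorescence was measured in A549 ARE_Fluc cells after 18-24 h of compound exposure in a concentration series. The subsequent BugLite luminescent read reports ARE-luciferase activity.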
# Nrf2 ARE act – activators of Nrf2 (ARE) signaling. AREc32 ARE-luciferase reporter (MCF7-derived line), luminescence, 24 h. Potency, µM (doses to about 46.1 µM), for the others: top-dose activation, usual class: activators. hit rate 0.31% among 410,000; further: potency means the concentration at half of the fitted maximal effect; % of control where 0% means no effect; nearly all actives have a fitted effect of over 65% in size
#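 Quantitative high-throughput format: AREc32 reporter cells, 1000 per well, received compound by pin transfer and were incubated 24 hr at 37 deg C, 5% CO2, before Steady-Glo luminescence detection.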
# The depositor's hits bear a star; ? = inconclusive; . = no result; ! = not confirmed by another sample. Unless noted, the call rests on the fitted dose curve; in most records, active means well fitted curve in the direction sought with a large enough effect; inconclusive means small, poorly fitted or top-dose-only effect, or another doubt; inactive means no such curve, though single readings can be large; an effect the other way counts as inactive or inconclusive.
1) CC#CCN1c2ccccc2[C@]23C[C@@H](C(=O)OC)N(C(=O)c4cc(C)oc4C)C2=NC(C(=O)OC)=C(C(=O)OC)[C@H]13
2) COc1ccc([C@H]2CC(=O)C=C(c3ccc(Cl)c(C(F)(F)F)c3)C2)cc1OC
3) COc1ccc([C@H]2CC(=O)C=C(c3ccc(C(F)(F)F)c(C(F)(F)F)c3)C2)cc1OC
4) Cc1cccc(C(=O)NCc2nc(-c3cccc(NC(=O)c4ccoc4C)c3)oc2C)n1
5) CC(=O)c1cccc(Nc2c3c(nc4ccccc24)CCC3)c1
6) CCOC(=O)c1cccc(Nc2c3c(nc4ccccc24)CCC3)c1
7) COC(=O)c1cccc(Nc2c3c(nc4ccccc24)CCC3)c1
8) Cc1cc(C)c2oc(-c3ccc(C)c(NC(=O)/C=C/c4ccco4)c3)nc2c1

Assay by compound	1	2	3	4	5	6	7	8
Nrf2 ARE act	0%	0%	2%	.	0%	-2%	0%	5.6µM*
Glioma ERSR ind	-2%	-3%	-7%	0%	-5%	-6%	-6%	0%
Nrf2 inh	16µM*	16µM*	?	.	-14%	21µM*	23µM*	23%
miR-21 reporter	?	.	.	.	25%	?	26%	-21%
A549 viability	-15%	?	4%	.	1%	-16%	-27%	-4%
PTAP TSG101 blk	1%	.	-6%	.	-6%	.	-6%	.

9) COc1ccc(-c2nc3cc(C)ccc3cc2CN(C(=O)c2cc(C)nn2C)C2CC2)cc1OC
10) CCC(C)(C)C1CCC2(CC1)NC(=O)N(CC(=O)N(C)CC(=O)Nc1ccccc1C(F)(F)F)C2=O (configuration not stated)
11) O=C(CN1C(=O)NC2(CCCC2)C1=O)Nc1ccccc1C(F)(F)F
12) CC(=O)Nc1ccc2c(c1)C(=O)c1ccccc1C2=O
13) CC(=O)Nc1ccc2c(c1)C(=Nc1ccc(C)cc1)c1ccccc1-2
14) CC(=O)Nc1ccc2c(c1)C(=Nc1ccccc1)c1ccccc1-2
15) CCOC(=O)c1nc(Nc2ccccc2CC)c2ccccc2n1
16) CCOC(=O)c1nc(Nc2ccccc2C)c2ccccc2n1

Assay by compound	9	10	11	12	13	14	15	16
Nrf2 ARE act	.	-1%	-1%	7%	13µM*	11µM*	-1%	2%
Glioma ERSR ind	-1%	-3%	-5%	-3%	-1%	2%	-6%	-1%
Nrf2 inh	.	15µM*	-1%	?	9%	27%	23µM*	?
miR-21 reporter	.	-15%	0%	-58%	.	.	0%	-9%
A549 viability	.	-20%	-9%	1%	-1%	4%	4%	3%
PTAP TSG101 blk	.	-1%	-5%	-4%	1%	-11%	-1%	-1%

17) CN(C)c1ccc(C2CCc3ccccc3N2C(=O)c2ccccc2)cc1 (configuration not stated)
18) Cc1ccc(Cl)cc1N1CCN(c2cccc[n+]2C)CC1
19) Cc1ccc(Cl)cc1N1CCN(C(=S)NCCc2ccccc2)CC1
20) Cc1c(C(=O)N2CCC(Cc3ccccc3)CC2)sc2ncnc(NCc3ccccn3)c12
21) Cc1ccccc1NC(=S)N1CCN(Cc2ccc3c(c2)OCO3)CC1
22) FC(F)(F)c1ccccc1NC(=S)N1CCN(Cc2ccc3c(c2)OCO3)CC1
23) COc1cc(F)c(S(=O)(=O)N2CCN(S(=O)(=O)c3cccc(NC(C)=O)c3)CC2)c(F)c1
24) COc1cc(F)c(S(=O)(=O)N2CCCN(S(=O)(=O)c3cccc(N)c3)CC2)c(F)c1

Assay by compound	17	18	19	20	21	22	23	24
Nrf2 ARE act	.	-1%	3%	.	-1%	0%	.	.
Glioma ERSR ind	-2%	-6%	1%	-5%	-3%	0%	.	.
Nrf2 inh	.	8.2µM*	-10%	.	-15%	18µM*	-14%	26µM*!
miR-21 reporter	.	22%	-8%	.	-6%	19%	.	.
A549 viability	.	3%	-6%	.	-1%	-2%	12%	10%
PTAP TSG101 blk	.	-3%	-2%	.	-1%	-3%	.	.

25) Cc1ccc(N/C(C(Cl)=C(Cl)Cl)=C(/Cl)[N+](=O)[O-])c(C)c1
26) Cc1ccc(NC(=O)CC(=O)Nc2ccc(C)cc2C)c(C)c1
27) O=C(C[n+]1cc(Br)cc(Br)c1)c1ccc2c(c1)CCCC2
28) CO[C@H]1[C@H](NC(=O)c2ccco2)c2ccccc2C12CCN(Cc1cnc(N(C)C)s1)CC2
29) Cc1ccc(C(=O)N2CCCC(C(=O)c3ccc(Oc4ccccc4)cc3)C2)cn1 (configuration not stated)
30) Cc1ccc(C(=O)N2CCCC(C(=O)c3ccc(Cl)cc3C)C2)cn1 (configuration not stated)
31) CC(=NNC(=S)N1CC2CCC(CC2)C1)c1cccc(C)n1
32) O=S(=O)(c1ccccc1Cl)N1CCCC(c2nc(-c3cccnc3)no2)C1 (configuration not stated)

Assay by compound	25	26	27	28	29	30	31	32
Nrf2 ARE act	22µM*	-1%	.	.	0%	3%	17%	2%
Glioma ERSR ind	?	-5%	-3%	-4%	-6%	-3%	12%	-4%
Nrf2 inh	-11%	14%	.	.	16µM*	-15%	?	26µM*
miR-21 reporter	0%	-1%	.	.	26%	6%	.	7%
A549 viability	-2%	-2%	.	.	?	-3%	9.2µM*	4%
PTAP TSG101 blk	2%	-9%	.	.	-9%	-4%	0%	.

33) COc1ccc(-c2noc(C3CCCN(S(=O)(=O)c4cccc(Cl)c4C)C3)n2)cc1OC (configuration not stated)
34) Cc1ccc(-c2nn3c(C)nnc3c3ccccc23)cc1S(=O)(=O)NC(C)(C)CO
35) Oc1ccc(-c2nccc(-c3cccs3)n2)cc1
36) COC(=O)C(C)Oc1ccc(-c2nccc(-c3cccs3)n2)cc1 (configuration not stated)
37) CCOc1ccc2nc(N3CCCC3C(=O)N3CCC(c4nc5ccccc5o4)CC3)nc(C)c2c1 (configuration not stated)
38) CCOC(=O)C1CCN(Cc2cc(Cl)c3ccccc3c2O)CC1
39) Fc1ccc(-c2csc3[n+]2CCS3)cc1
40) Cc1ccc(NS(=O)(=O)c2ccc3c(c2)CC(=O)N3C)cc1C

Assay by compound	33	34	35	36	37	38	39	40
Nrf2 ARE act	0%	?	10µM*	10%	.	?	-1%	.
Glioma ERSR ind	-2%	?	0%	-4%	-2%	28µM*	-6%	.
Nrf2 inh	?	12µM*	?	.	.	-10%	16µM*	?
miR-21 reporter	1%	-22%	-47%	-36%	.	15%	-5%	.
A549 viability	-3%	?	-6%	0%	.	-7%	-22%	4%
PTAP TSG101 blk	-8%	-1%	0%	-1%	.	0%	-5%	.

41) COc1ccc(-c2ccnc(-n3ncc(C(=O)NC(C)(C)CO)c3C3CC3)n2)cc1F
42) Cc1nnc(SC(=O)N2c3ccccc3Sc3ccccc32)s1
43) O=C(Cn1cncn1)N1CCOc2ccc(CN3CCN(c4ccccc4)CC3)cc2C1
44) NC(N)=NC(N)=NCCc1ccccc1
45) COc1ccccc1NC(=O)C(OC(=O)CNC(=O)c1ccccc1)c1ccccc1 (configuration not stated)

Assay by compound	41	42	43	44	45
Nrf2 ARE act	.	?	.	2%	.
Glioma ERSR ind	4%	1%	-5%	-2%	.
Nrf2 inh	.	13µM*	.	13µM*	13%
miR-21 reporter	.	27%	.	-19%	.
A549 viability	.	0%	.	-6%	-1%
PTAP TSG101 blk	.	-5%	.	-6%	.

# High-throughput results as filed in PubChem.
